Reference: patent US20080311604A1, “Methods for Prediction and Prognosis of Cancer, and Monitoring Cancer Therapy” (priority 2005, published 2008)
Like-named read-outs stand apart in the source and are kept apart here.

Test system: soluble VEGF-R2
Settings: plasma, renal cell carcinoma patients

CNC(=O)c1cc(Oc2ccc(NC(=O)Nc3ccc(Cl)c(C(F)(F)F)c3)cc2)ccn1 [Sorafenib]
Median soluble VEGF-R2 (Cycle 1 Day 21): 9704 pg/mL | Median soluble VEGF-R2 (Cycle 3 Day 1): 8964 pg/mL | Median soluble VEGF-R2 (Sorafenib group, Baseline (pretreatment)): 12237 pg/mL
